# AlphaSeq binding of Ab-95 light chain variants to a spike HR2 peptide

The measurements come from Engelhart et al. 2022 (doi:10.1038/s41597-022-01779-4) through the FLAb antibody collection.

Antigen: PDVDLGDISGINAS, a 14-residue peptide of the SARS-CoV-2 spike HR2 region.

Ab-95 is the parent antibody, in scFv form: VH, then the linker GGGGSGGGGSGGGGS, then VL. The heavy chain is unchanged in all variants.
VH: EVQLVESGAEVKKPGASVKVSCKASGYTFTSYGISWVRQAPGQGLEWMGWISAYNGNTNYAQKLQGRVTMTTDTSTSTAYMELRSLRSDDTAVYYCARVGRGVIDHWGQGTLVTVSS
VL: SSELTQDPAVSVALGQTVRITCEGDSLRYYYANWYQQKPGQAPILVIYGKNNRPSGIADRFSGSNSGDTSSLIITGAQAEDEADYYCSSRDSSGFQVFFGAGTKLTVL

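In library AAYL52, one, two or three CDR residues were substituted; doubles and triples were drawn at random. AlphaSeq pools MATa yeast showing the antibodies with MATalpha yeast showing the peptide. Mating (16 h, 30 °C) was followed by selection of diploids and sequencing of their barcodes. Read counts were normalised to the haploid input and turned into Kd by a linear fit to BCL2-family pairs of known affinity, for each replicate. Each pool was mated in three replicate cultures.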

Substitutions are numbered in sequence along the VL above, starting at 1 (not Kabat). Numbers give log10(Kd / nM), so 0 is 1 nM and 3 is 1 µM. Smaller is tighter. A mean of the replicates is given; it leaves out those without a signal. "nd" means that the variant was in the library but no mating with the target was seen in that replicate; the authors take this as a sign of poor binding, and no number exists.

For L27T R28Q F98N, the assay gave nd, nd, nd (controls 1 of 9).
For G24H A32S S93L, the assay gave 2.90, 3.55, 2.98 (mean 3.14; controls 6 of 9).
For D25M Q96R, the assay gave 2.17, 2.71, 2.36 (mean 2.41; controls 2 of 9).
For A32D N33F V97W, the assay gave nd, nd, nd (controls 1 of 9).
For Y31T S93E F98L, the assay gave nd, 2.71, 2.14 (mean 2.43; controls 3 of 9).
For Y29P Y31F G94Q, the assay gave 2.97, nd, nd (controls 3 of 9).
For R53S S89I S92K, the assay gave 2.90, 3.24, 3.07 (mean 3.07; controls 0 of 9).
For R28T S88V S89D, the assay gave 2.28, 3.09, 2.32 (mean 2.56; controls 1 of 9).
For P54Q F95K, the assay gave 3.45, nd, nd (controls 0 of 9).
For S26K Y31K F98M, the assay gave 2.79, 3.92, nd (mean 3.36; controls 4 of 9).
For N52E P54K F98K, the assay gave 3.09, 2.41, 2.20 (mean 2.57; controls 2 of 9).
For E23G S26H L27I, the assay gave 3.01, 3.40, 3.18 (mean 3.20; controls 3 of 9).
For Y29W F98M, the assay gave 2.44, 2.79, 2.95 (mean 2.73; controls 3 of 9).
For Y29L G94M Q96A, the assay gave nd, nd, nd (controls 0 of 9).
For N51C S89I R90L, the assay gave nd, nd, nd (controls 0 of 9).
For Y29T F95W Q96V, the assay gave 2.49, 2.83, 2.36 (mean 2.56; controls 4 of 9).
For D25S N51G P54L, the assay gave 3.32, 4.38, 2.51 (mean 3.40; controls 2 of 9).

Continued, with the values leading:

4.92, nd, nd (controls 3 of 9) for K50H R90L Q96S.
2.85, 2.38, 3.55 (mean 2.92; controls 3 of 9) for E23K S89E D91V.
2.39, 2.52, 2.33 (mean 2.41; controls 1 of 9) for E23R G49A N52E.
4.79, nd, 3.86 (mean 4.33; controls 0 of 9) for P54Y R90G F98E.
2.68, 3.54, 2.23 (mean 2.82; controls 2 of 9) for N52R S88N S92Q.
4.18, 4.34, nd (mean 4.26; controls 3 of 9) for R53Q S55I F98S.
3.27, 2.78, 3.27 (mean 3.11; controls 3 of 9) for D25P R28C.
3.07, nd, nd (controls 2 of 9) for N51Q R53P Q96D.
nd, 4.42, 4.13 (mean 4.27; controls 2 of 9) for A32I G49P N52V.
2.94, 3.22, 2.44 (mean 2.87; controls 3 of 9) for S92H F95R Q96A.
nd, nd, nd (controls 2 of 9) for P54M G94P.
2.95, 2.53, 2.43 (mean 2.64; controls 4 of 9) for Y31A D91R F98A.
3.34, 3.29, 2.80 (mean 3.14; controls 3 of 9) for K50L S55G R90Y.
3.19, nd, nd (controls 2 of 9) for Y29A G49E F98M.
nd, nd, nd (controls 0 of 9) for N33I D91N.
0.98, 1.43, 0.54 (mean 0.99; controls 4 of 9) for Y31T N33H S55K.
nd, 3.82, nd (controls 1 of 9) for G49T N51S V97G.
3.69, 2.97, 3.71 (mean 3.46; controls 0 of 9) for L27I K50R S55P.

The first 3 entries again:

The variant L27T R28Q F98N gave nd, nd, nd (controls 1 of 9).
The variant G24H A32S S93L gave 2.90, 3.55, 2.98 (mean 3.14; controls 6 of 9).
The variant D25M Q96R gave 2.17, 2.71, 2.36 (mean 2.41; controls 2 of 9).

In this assay the parent's reference entry averaged 2.31; its copy inside this library read 2.25. As a blank, each scFv also met three strains without target: over library AAYL52, 28% of these pairings were detected, typically at 3.91 and seldom below 2.90. Also given: how often the same scFv was detected with the empty control strains.